The results in this text go back to paper PMC7668297 (Journal of medicinal chemistry, 2020).

The conditions of the data set: male, C57B6/J, mouse, plasma, ip, 10 mg/kg.

In turn, `CN(C)c1ccc(Nc2nc(-c3ccncc3)nc3c2CC(N)CC3)cc1` (stereo not shown) [Compound 14, N4-[4-(dimethylamino)phenyl]-2-(4-pyridyl)-5,6,7,8-tetrahydroquinazoline-4,6-diamine] gave a tmax of 15 min.
